Literature values as cited in patent publication US9119805B2, “Therapy and prevention of problem drinking” (THE UNIVERSITY OF SYDNEY, priority 2009, dated 2015).

Chains of the proteins cited; added tags and fusions are not shown. Lines headed by an entry give the natural chain unless they say otherwise; changes in a name come on top.
UniProt P30559: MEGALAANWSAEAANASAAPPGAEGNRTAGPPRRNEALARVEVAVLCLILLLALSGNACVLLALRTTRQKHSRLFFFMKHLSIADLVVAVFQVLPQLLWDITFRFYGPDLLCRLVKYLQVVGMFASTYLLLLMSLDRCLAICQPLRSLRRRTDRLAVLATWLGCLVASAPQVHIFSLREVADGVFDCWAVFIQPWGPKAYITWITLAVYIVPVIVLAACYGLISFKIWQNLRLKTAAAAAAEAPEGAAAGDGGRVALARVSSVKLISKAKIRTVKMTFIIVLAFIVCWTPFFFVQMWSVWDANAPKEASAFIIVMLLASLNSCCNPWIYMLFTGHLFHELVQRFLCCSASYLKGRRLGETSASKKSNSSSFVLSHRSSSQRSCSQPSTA

Target: oxytocin receptor (Homo sapiens, UniProt P30559)
Conditions: cited from earlier work

In the case of `Cc1cc(C(=O)N2Cc3cnn(C)c3Nc3ccccc32)ccc1CNC(=O)N1CCN(Cc2cc(O)cc(O)c2)CC1` [WAY-267,464], the “affinity, potency and selectivity at the oxytocin receptor” value is given as “high-affinity, potent and selective non-peptide agonist”.
